pIC50: −log10 of the molar value.
These compounds were tested against human p38 MAPK α (Homo sapiens (Human), UniProt Q16539) (assay: Evaluation of p38 MAPK inhibitory activity (Alpha Screen, ATF2 phosphorylation)). Details: p38α/SAPK2a 1.5 nM, ATP 100 μM, biotinylated ATF2 30 nM.
Format: biochemical
Procedure: Using human p38 MAPK α, the p38 MAPK inhibitory activity of Compound (I) was studied by a method partially modified from the method described in Current Medicinal Chemistry (2004, No. 11, pp. 721-730).
A solution of each test compound solution in 100% DMSO and a p38α/SAPK2a solution (Final Concentration: 1.5 nM) (Invitrogen) were added to a 384-well plate, and then the plate was incubated at room temperature in a dark place for 1 hour. Thereafter, ATP (Final Concentration: 100 μM), which is a phosphate donor, and biotinylated ATF2 (Final Concentration: 30 nM) (upstate), which is a substrate, were added, and the resulting mixture was allowed to react at room temperature in a dark place for 1 hour (the final concentration of DMSO was 0.25%). After the reaction, an anti-phosphorylated ATF2 antibody (Final Concentration: 1 nM) (Cell Signaling), anti-IgG acceptor beads (Final Concentration: 20 μg/mL) (PerkinElmer) and streptavidin donor beads (Final Concentration: 20 μg/mL) (PerkinElmer) were added, and the resultant was incubated at room temperature in a dark place for 1 hour. Using a microplate analyzer (Fusion-α, Packard) in Alpha Screen method (Amplified Luminescent Proximity Homogeneous Assay), the light emission was detected. The IC50 value of each compound was calculated by sigmoidal dose-response regression using Prism 4.02 (GraphPad Software, Inc.). As a comparative control compound, Comparative Compound 1 was used.

Chains of the proteins cited; added tags and fusions are not shown.
UniProt Q16539, whole entry: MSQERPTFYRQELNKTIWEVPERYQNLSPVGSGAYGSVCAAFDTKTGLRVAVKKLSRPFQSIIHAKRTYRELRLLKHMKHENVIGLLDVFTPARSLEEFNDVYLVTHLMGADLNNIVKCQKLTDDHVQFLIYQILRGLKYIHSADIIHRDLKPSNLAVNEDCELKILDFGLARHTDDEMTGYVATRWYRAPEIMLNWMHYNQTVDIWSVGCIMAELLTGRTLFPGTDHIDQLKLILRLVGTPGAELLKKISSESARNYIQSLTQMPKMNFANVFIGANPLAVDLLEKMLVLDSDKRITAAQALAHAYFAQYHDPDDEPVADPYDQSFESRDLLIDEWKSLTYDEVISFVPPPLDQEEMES

SMILES | pIC50
COc1c(CO)cc(C(C)(C)C)cc1NC(=O)N[C@@H]1Cc2c(F)cccc2[C@@H]1O [Compound 3, 1-(5-tert-butyl-3-(hydroxymethyl)-2-methoxyphenyl)-3-((1S,2R)-4-fluoro-1-hydroxy-2,3-dihydro-1H-indene-2-yl)urea] | 8.52
COc1c(NC(=O)N[C@@H]2Cc3ccccc3[C@@H]2O)cc(C2(C)CCOCC2)cc1[C@H](O)C(F)(F)F (single isomer, unassigned) [Compound 108b] | 7.89
COc1c(NC(=O)N[C@@H]2Cc3ccccc3[C@@H]2O)cc(N2CCCC2)cc1[C@H](O)C(F)(F)F (single isomer, unassigned) [Compound 92b] | 7.29
